Results taken from the supplement of paper PMC12350171.
Shown are results outside the selection of hits, which stands elsewhere.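 How the source made its calls: active = AUC significantly below DMSO controls by Student t-fit with adjusted P under 0.01; inactive = not significantly reduced.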

Tested on: Haemophilus parainfluenzae
Test: growth AUC normalised to DMSO control (fraction of control); higher = less growth inhibition, active = hit call of the paper
Details: 20 µM

COc1cc(Br)c(C[N+]2(CCOCCC3CCC4CC3C4(C)C)CCOCC2)cc1OC (stereo unspecified) [Pinaverium bromide]
growth AUC normalised to DMSO control: inactive: 1.05
